Molecular target: CYP2C8 (Homo sapiens, UniProt P10632)
Experiment: Inactivation kinetics of CYP2C8 (literature data and reanalysis)
Settings: reanalysis of literature data, kobs vs [I]

Amino acid sequences for entries named in this document (tags omitted).
UniProt P10632, whole entry: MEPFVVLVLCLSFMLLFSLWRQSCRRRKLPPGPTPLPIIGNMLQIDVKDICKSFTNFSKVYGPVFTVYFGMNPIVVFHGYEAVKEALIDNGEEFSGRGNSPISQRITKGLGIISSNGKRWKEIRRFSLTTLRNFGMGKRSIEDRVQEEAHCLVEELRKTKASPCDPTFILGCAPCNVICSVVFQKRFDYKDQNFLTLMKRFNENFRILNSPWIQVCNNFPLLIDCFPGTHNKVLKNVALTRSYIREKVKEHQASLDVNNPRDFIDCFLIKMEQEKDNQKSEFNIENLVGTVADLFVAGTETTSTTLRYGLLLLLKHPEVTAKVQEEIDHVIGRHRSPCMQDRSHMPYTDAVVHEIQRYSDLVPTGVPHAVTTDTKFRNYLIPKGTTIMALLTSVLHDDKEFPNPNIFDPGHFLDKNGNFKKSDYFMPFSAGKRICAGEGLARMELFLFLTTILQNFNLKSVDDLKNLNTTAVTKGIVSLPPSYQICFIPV

For `CNCCC(Oc1ccc(C(F)(F)F)cc1)c1ccccc1` (stereo not shown) [Fluoxetine], the Inactivation mechanism was “indistinguishable from a one-step inactivation mechanism”.
